The target in this experiment is Acetylcholinesterase (Rattus norvegicus, UniProt P37136). As to the kind of experiment: Inhibition of rat brain Acetylcholinesterase using acetylthiocholine as substrate in presence of BChE inhibitor ethopropazine by spectrophotometric method.

This passage reports IC50 results from ChEMBL document CHEMBL4342404, “Anti-cholinesterase hybrids as multi-target-directed ligands against Alzheimer's disease (1998-2018)” (Bioorg Med Chem, 2019).

One may read the IC50 as the point on the concentration scale where inhibition reaches its midpoint.

Molecules are shown by their SMILES.

For `c1ccc2c(NCCCCCCCCCNc3c4c(nc5ccccc35)CCCC4)c3c(nc2c1)CCCC3`, the IC50 worked out at 0.77 nM.
